# The list shows a part of the results, in another mix than the full data. Active and inactive are the calls of the source.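 Rule for the calls: active = Z-score of -3 or lower, scaled per plate to the spread of control and sample wells; inactive = z-score above -3.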
# The chains behind the UniProt entries cited, without tags or fusion partners.
# UniProt Q14289, whole entry, looked up: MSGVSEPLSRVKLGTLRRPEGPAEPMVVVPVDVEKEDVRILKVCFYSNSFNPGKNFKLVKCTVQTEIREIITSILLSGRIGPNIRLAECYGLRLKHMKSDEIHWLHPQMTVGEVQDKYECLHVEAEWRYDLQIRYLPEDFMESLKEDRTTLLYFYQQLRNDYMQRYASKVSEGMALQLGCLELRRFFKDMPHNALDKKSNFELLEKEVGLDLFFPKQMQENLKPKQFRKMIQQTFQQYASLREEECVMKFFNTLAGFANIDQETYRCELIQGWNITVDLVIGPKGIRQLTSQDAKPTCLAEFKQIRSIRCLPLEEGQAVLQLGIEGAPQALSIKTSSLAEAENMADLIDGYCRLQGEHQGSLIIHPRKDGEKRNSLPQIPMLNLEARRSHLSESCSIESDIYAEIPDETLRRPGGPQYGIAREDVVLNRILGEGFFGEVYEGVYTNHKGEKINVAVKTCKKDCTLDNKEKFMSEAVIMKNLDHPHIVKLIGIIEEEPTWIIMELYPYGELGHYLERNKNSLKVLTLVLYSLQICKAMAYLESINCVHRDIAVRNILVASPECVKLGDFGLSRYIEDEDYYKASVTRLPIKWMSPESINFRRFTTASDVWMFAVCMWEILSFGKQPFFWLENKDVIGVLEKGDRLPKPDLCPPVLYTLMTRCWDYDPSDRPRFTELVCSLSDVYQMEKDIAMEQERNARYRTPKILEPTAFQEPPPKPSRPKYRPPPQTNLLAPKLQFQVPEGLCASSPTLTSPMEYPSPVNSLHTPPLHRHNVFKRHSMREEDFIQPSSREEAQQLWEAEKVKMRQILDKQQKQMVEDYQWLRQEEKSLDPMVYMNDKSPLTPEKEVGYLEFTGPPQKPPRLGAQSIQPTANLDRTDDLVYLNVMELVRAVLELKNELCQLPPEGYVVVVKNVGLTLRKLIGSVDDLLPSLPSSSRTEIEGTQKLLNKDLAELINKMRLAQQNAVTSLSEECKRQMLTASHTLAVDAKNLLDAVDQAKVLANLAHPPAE
# Target: Protein-tyrosine kinase 2-beta (Homo sapiens) (UniProt Q14289)
# Experiment: Pyk2 FERM oligomerization blockers – Q293 cells, FERM NanoBiT luminescence, HTS, primary screen (AID 1347419);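 note: the deposit names both 25 µM and 10 µM; negative z-score means lost luminescence so less FERM oligomerization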
# Design: dose or concentration left out as unconfirmed
# Details: stronger effect = lower value
row,SMILES,z-score
1,c1nnnn1CCn1cnnn1,inactive: 1
2,O=P(Nc1nccs1)(c1ccccc1)c1ccccc1,inactive: 1.5
3,O=C(OC1CN2CCC1CC2)c1cccc(Cl)c1 (stereo not drawn),inactive: 0.66
4,COC(=O)c1cc2c(s1)N=C(c1ccccc1)N(C)P2(=O)N1CCOCC1 (stereo not drawn),inactive: 0.34
5,CCC(=O)N1C2C3N(C(=O)CC)C1C1N(C(=O)CC)C(C(N1C(=O)CC)N3C(=O)CC)N2C(=O)CC,inactive: 0.6
6,O=P1(Nc2nc3ccc(Cl)cc3s2)COc2ccccc2O1 (stereo not drawn),inactive: 0.42
7,CN1CCCC(OC(=O)C(c2ccccc2)c2ccccc2)C1 (stereo not drawn),inactive: -0.58
8,CC(C)CC(=O)NC(Sc1ccc(Cl)cc1)C(Cl)(Cl)Cl (stereo not drawn),inactive: -0.37
9,Oc1ccccc1CNc1ccccn1,inactive: 0.36
10,CCOP(=O)(Nc1ccccc1)OCC,inactive: 0.36
11,O=[N+]([O-])c1cccc2n[nH]nc12,inactive: 1.17
12,CC(=O)N1C2C3N(C(C)=O)C1C1N(C(C)=O)C(C(N1C(C)=O)N3C(C)=O)N2C(C)=O,inactive: 1.05
13,CCc1nc2c(n1)c1c(non1O)c1c2no[n+]1[O-],inactive: -0.65
14,CN(C)C(=O)OCCc1n(C)cc[n+]1C,inactive: -0.02
15,CC1CCN(C(=O)Oc2c(Cl)cc(Cl)c3cccnc23)CC1,inactive: 0.12
16,O=C(COc1ccccc1)OC1CN2CCC1CC2 (stereo not drawn),inactive: -0.28
17,COP1(=S)c2c(C)nn(CCC#N)c2N=C(c2ccc(F)cc2)N1C (stereo not drawn),inactive: 0.39

row,SMILES,z-score
1,CCC(C)N(CC(C)C)C(=S)SC(NC(C)=O)C(Cl)(Cl)Cl (stereo not drawn),inactive: -0.8
2,CCN(CC)C(=S)SC(NC=O)C(Cl)(Cl)Cl (stereo not drawn),inactive: -0.63
3,ClCCSc1nnc(-c2cccnc2)o1,inactive: 2.35
4,O=C(OC1CN2CCC1CC2)C12CC3CC(CC(C3)C1)C2 (stereo not drawn),inactive: 1.26
5,Cc1cccc(OCC(=O)OC2CN3CCC2CC3)c1 (stereo not drawn),inactive: 0.44
6,O=P(Nc1nccs1)(c1ccccc1)c1nc2ccccc2s1 (stereo not drawn),inactive: 0.46
7,CCOP1(=S)c2c(C)nn(CCC#N)c2N=C(c2ccccc2F)N1C (stereo not drawn),inactive: -0.45
8,O=[N+]([O-])c1ccc2c(c1)nnn2O,inactive: 0.38
9,CCOP1(=S)c2c(C)nn(CCC#N)c2N=C(c2ccc(F)cc2)N1C (stereo not drawn),inactive: 0.49
10,Cc1nn(-c2ccccc2)c2c1P(=O)(N1CCOCC1)N(C)C(c1ccccc1)=N2 (stereo not drawn),inactive: 0.74
11,O=P1(Nc2ccc(Br)cn2)COc2ccccc2OC1,inactive: 0.14
12,Cc1ccc(OCC(=O)OC2CN3CCC2CC3)cc1 (stereo not drawn),inactive: 0.45
13,O=P1(Nc2ncccn2)COc2ccccc2OC1,inactive: 0.87
14,Clc1n[nH]nc1-c1nn[nH][15n]1,inactive: 0.57
15,O=P1(Nc2ccccn2)COc2ccccc2OC1,inactive: 1.06
16,CC1(CBr)Cn2c(nc3ccccc3c2=O)S1 (stereo not drawn),inactive: 0.63

# Reference: PubChem BioAssay AID1347419 (Sanford-Burnham Center for Chemical Genomics, 2020)
